Structures are written as SMILES. pIC50: −log10 of the molar value.

Protein sequences, listed by entry. Tags and fused reporters are not part of them. Lines headed by an entry give the natural chain unless they say otherwise; changes in a name come on top.
UniProt P25779: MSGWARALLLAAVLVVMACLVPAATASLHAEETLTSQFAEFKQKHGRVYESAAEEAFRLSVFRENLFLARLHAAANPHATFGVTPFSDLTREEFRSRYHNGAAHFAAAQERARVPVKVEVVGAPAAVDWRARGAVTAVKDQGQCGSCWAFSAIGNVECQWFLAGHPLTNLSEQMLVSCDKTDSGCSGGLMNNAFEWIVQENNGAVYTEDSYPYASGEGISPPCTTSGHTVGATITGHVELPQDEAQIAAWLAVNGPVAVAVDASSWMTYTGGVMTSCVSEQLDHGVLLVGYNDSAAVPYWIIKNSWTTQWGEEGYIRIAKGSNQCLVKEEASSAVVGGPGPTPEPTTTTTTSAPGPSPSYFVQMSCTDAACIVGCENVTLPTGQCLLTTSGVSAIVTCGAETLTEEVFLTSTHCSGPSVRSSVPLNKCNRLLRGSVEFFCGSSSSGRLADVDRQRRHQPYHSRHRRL

The assay concerns the target Cruzipain (Trypanosoma cruzi, UniProt P25779). Description: Inhibitory concentration against cruzain of Trypanosoma cruzi.

By pIC50 is commonly meant the IC50 on a negative log10 scale, so that one unit is a factor of ten. As for `CC/C(=N\NC(N)=S)c1cccc(Br)c1`, the pIC50 was 6.51.

The values are drawn from ChEMBL document CHEMBL1144459, “Discovery of potent thiosemicarbazone inhibitors of rhodesain and cruzain” (Bioorg Med Chem Lett, 2005).
